For six molecules, logP and pKHB results are on record in ChEMBL document CHEMBL5131543, “Studying Lipophilicity Trends of Phosphorus Compounds by 31P-NMR Spectroscopy: A Powerful Tool for the Design of P-Containing Drugs” (J Med Chem, 2022).

Data set [1] can be described thus: […]-water partition coefficient, logP of compound by shake flask method based 31P-NMR analysis. The settings on record: octanol/water.
The nature of data set [2]: Basicity of hydrogen bond, pKHB of compound by IR spectroscopy. Type of data set: physicochemical.
Data set [3] can be described thus: Octanol-water partition coefficient, logP of compound by shake flask method based 31P-NMR analysis.

Each structure is given as a SMILES string.

As for `COP(C)(=O)OC`, the logP in data set [1] was -0.73.

Turning to `CCOP(C)(=O)OCC`, the pKHB in data set [2] was found to be 2.72. Besides, the log partition coefficient (logP) in data set [3] and in data set [1] was 0.05 each time.

Turning to `CCOP(C)(=O)OCCN(C(C)C)C(C)C` (stereo not drawn), the logP in data set [3] worked out at 0.08.

For the molecule `CCOP(C)(=S)OCC`, in data set [2], the pKHB was 1.07.

`CP(=O)(OC1CCCCC1)OC1CCCCC1` showed a logP in data set [3] of 2.14.

In turn, `CCOP(C)(=O)SCC` (stereo not drawn) registered a pKHB in data set [2] of 2.46.

For orientation: logP means a log measure of how a compound divides between an organic and an aqueous phase. Low readings indicate a more hydrophilic compound, high ones a more lipophilic compound.
